Assay results from ChEMBL document CHEMBL4340530, “Peptide-based covalent inhibitors of MALT1 paracaspase” (Bioorg Med Chem Lett, 2019).
Activity calls are given as the source filed them. The rule behind the calls is not given here.

Tests used:
[1] = target: T1, Mucosa-associated lymphoid tissue lymphoma translocation protein 1 (Homo sapiens) (UniProt Q9UDY8); test: Inhibition of MALT1 in human OCI-LY3 cells assessed as reduction in Relb cleavage at 20 uM by Western blot analysis; format: cell-based
T1 sequence (whole entry): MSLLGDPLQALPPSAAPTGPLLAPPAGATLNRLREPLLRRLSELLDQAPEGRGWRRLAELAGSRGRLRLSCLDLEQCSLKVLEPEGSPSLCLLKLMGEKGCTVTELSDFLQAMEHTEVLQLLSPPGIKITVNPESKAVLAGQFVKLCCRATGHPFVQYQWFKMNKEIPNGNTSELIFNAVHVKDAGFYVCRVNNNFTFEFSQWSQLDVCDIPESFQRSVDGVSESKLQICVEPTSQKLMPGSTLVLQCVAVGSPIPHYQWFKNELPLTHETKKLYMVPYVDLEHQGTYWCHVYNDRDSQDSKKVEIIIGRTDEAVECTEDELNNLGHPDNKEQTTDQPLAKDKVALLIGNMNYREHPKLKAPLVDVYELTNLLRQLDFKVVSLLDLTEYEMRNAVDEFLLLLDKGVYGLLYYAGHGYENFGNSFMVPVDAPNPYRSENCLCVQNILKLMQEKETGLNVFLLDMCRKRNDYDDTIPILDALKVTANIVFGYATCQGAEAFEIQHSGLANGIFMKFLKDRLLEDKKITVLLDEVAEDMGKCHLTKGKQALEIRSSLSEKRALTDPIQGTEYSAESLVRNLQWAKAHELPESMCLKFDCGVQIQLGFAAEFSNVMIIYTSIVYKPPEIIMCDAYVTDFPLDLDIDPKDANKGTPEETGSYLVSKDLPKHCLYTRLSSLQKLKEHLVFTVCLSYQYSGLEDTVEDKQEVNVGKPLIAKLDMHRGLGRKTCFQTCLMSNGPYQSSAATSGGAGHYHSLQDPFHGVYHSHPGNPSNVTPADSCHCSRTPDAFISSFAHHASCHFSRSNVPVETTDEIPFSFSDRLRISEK

[2] = target: T1, Mucosa-associated lymphoid tissue lymphoma translocation protein 1 (Homo sapiens); conditions: 1.25 uM

In the case of `CC(C)[C@H](NC(=O)OCc1ccccc1)C(=O)N[C@@H](CCCNC(=N)N)C(=O)N1CCC[C@H]1C(=O)N[C@@H](CCCNC(=N)N)C(=O)CF`, the inhibition [1] is reported as “Active”.

`CC(C)C[C@H](NC(=O)OCc1ccccc1)C(=O)N[C@H](C(=O)N1CCC[C@H]1C(=O)N[C@@H](CCCNC(=N)N)C(=O)CF)C(C)C` showed an inhibition [2] of 100%.
